## Binding of CDR-mutated scFvs to a peptide of the spike HR2 region

Reference: Engelhart et al. 2022, doi:10.1038/s41597-022-01779-4. File: FLAb, binding data.

Antigen: PDVDLGDISGINAS, a 14-residue peptide of the SARS-CoV-2 spike HR2 region.

Parent: Ab-95, a human scFv built as VH, a (GGGGS)3 linker, VL. Only the CDRs of the light chain vary.
VH: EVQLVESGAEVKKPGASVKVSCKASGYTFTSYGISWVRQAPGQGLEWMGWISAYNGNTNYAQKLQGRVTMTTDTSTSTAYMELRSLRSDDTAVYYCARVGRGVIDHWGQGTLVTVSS
VL: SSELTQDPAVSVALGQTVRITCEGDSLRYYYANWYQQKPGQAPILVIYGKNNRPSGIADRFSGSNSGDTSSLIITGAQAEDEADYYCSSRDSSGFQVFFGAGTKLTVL

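The starting antibody came from a phage panning campaign against this peptide. Variants in AAYL52 differ from the parent at up to three CDR positions; double and triple changes were sampled at random. In AlphaSeq, yeast of one mating type display the scFv and yeast of the other type display the target. Mating (16 h, 30 °C) was followed by selection of diploids and sequencing of their barcodes. The ratio of observed to expected reads was calibrated, replicate by replicate, on BCL2-family standards whose Kd was known from biolayer interferometry. The assay was run in three technical replicates.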

Each variant is given by its three light chain CDRs, as the data file delimits them; those of the parent are EGDSLRYYYAN, GKNNRPS, SSRDSSGFQVF.
Affinities are written as log10 Kd with Kd in nM; a lower number is a better binder.
Where no diploid with the target was found in that replicate, the entry reads "ND": below detection, most likely a poor binder, though not proof of it.
Nonspecific signal, from three strains lacking the peptide, appeared in 28% of pairings of library AAYL52, centred on 3.91 (5% of these signals below 2.90); values are not corrected for it. Also given: how often the same scFv was detected with the empty control strains.
For reference, the parent read 2.31 as the reference entry and 2.25 as a member of this library.

The variant ETDSWRYYYAN / GKNNRPS / SSRDSSGFQFF gave 3.39, 5.63, ND (controls 4 of 9).
The variant EGDSLRYYYAF / GKNNRPS / SSRDSSPFGVF gave ND, 4.42, ND (controls 1 of 9).
The variant EGDTLTYYYAN / GKWNRPS / SSRDSSGFQVF gave ND, ND, ND (controls 5 of 9).
The variant EGTMLRYYYAN / GKNNRPS / SSRDSSGFDVF gave ND, ND, 3.95 (controls 1 of 9).
The variant EGWSLRYYYDN / GKNNEPS / SSRDSSGFQVF gave 4.73, 3.80, 4.52 (controls 5 of 9).
The variant EGDSLRAYLAN / GKNNYPS / SSRDSSGFQVF gave 3.71, 5.78, 4.42 (controls 5 of 9).
The variant LGDQLRWYYAN / GKNNRPS / SSRDSSGFQVF gave 4.82, 4.32, 3.54 (controls 2 of 9).
The variant EGDSLRYYYPN / GKNNRPS / SSRDSSFFVVF gave 2.16, 1.97, 1.71 (controls 3 of 9).
The variant EGDSLRGQYAN / GKNNRPS / SSRDSSGFKVF gave 0.98, 1.08, 0.96 (controls 2 of 9).
The variant EGDSLRYYGAN / GKNNRPT / SSRDSSGYQVF gave 1.93, 1.96, 1.80 (controls 4 of 9).
The variant EGDKLRYYYAN / GKNNEPS / SSRDTSGFQVF gave ND, ND, ND (controls 2 of 9).
The variant EGDSLSYYYAN / WKNNRRS / SSRDSSGFQVF gave ND, 5.25, 3.35 (controls 3 of 9).
The variant EGDSLRYYYAN / GKNNRPS / SSLDSSGFQVF gave 3.52, 4.36, ND (controls 5 of 9).
The variant EGDSRYYYYAN / GKNNRPD / SSRDSSGFQVF gave 4.25, 3.73, ND (controls 1 of 9).
The variant KGDSLRYRYAN / GKNNRPS / SSRDSSGFQVF gave 1.87, 1.82, 1.46 (controls 2 of 9).
The variant CGDSLRYYYAT / GKNNRPS / SSRDSSGGQVF gave 3.94, 4.92, ND (controls 1 of 9).
The variant EGDSLRYGYAN / GQNNKPS / SSRDSSGFQVF gave 0.85, 1.21, 0.19 (controls 4 of 9).
The variant ETDSLIYYYAN / GKNNRPS / SSRDSSGFWVF gave 5.63, ND, ND (controls 1 of 9).
The variant RGDSLRYYYAM / GKNQRPS / SSRDSSGFQVF gave 3.39, 3.42, 3.06 (controls 3 of 9).
The variant EGDSLRYYYHN / GKNNRPS / SSRDSIGFQWF gave 2.64, 2.55, 2.45 (controls 1 of 9).
The variant EGDSQIYYYAN / GKNNRPS / SSRDSSSFQVF gave 4.71, 4.99, 3.46 (controls 8 of 9).
The variant EGDSLRYYYAK / GKNNRMS / SKRDSSGFQVF gave ND, ND, 4.72 (controls 1 of 9).
The variant EGDSLRYYYQN / GKNRRPN / SSRDSSGFQVF gave 2.69, 3.13, 2.41 (controls 1 of 9).
The variant EGISLRYYYAN / GPNNRPS / YSRDSSGFQVF gave 2.97, 2.93, 3.91 (controls 3 of 9).
The variant EPDYLRYYYAN / EKNNRPS / SSRDSSGFQVF gave 3.86, 3.57, 3.07 (controls 2 of 9).
The variant EGDSLRYYYAN / QKNNRPS / STRDSSGKQVF gave ND, 3.06, ND (controls 0 of 9).
The variant EGDSLRYYYAN / GRRNRPS / NSRDSSGFQVF gave 4.33, 3.29, ND (controls 3 of 9).
The variant WGDSLRYYYAY / GSNNRPS / SSRDSSGFQVF gave 3.77, ND, 3.38 (controls 7 of 9).
The variant EGLSLRYYYAN / GKNNRPS / SSCDSSGFQGF gave 2.87, 3.01, 1.99 (controls 2 of 9).
The variant EGDSLRYYYAN / GKNNEPS / SFRDSSGFQTF gave ND, ND, ND (controls 1 of 9).
The variant EGDSLRYYYAN / GINNRPS / SGLDSSGFQVF gave ND, ND, ND (controls 0 of 9).
The variant EGDSLRDYYAN / GRNNRPS / SSRDSSGFTVF gave 2.83, 3.40, 2.95 (controls 1 of 9).
The variant EGNSLRYYYAN / SKNNRPS / SSRDSSAFQVF gave ND, ND, ND (controls 0 of 9).
The variant EGDYLREYYAN / GKNNRPS / FSRDSSGFQVF gave 3.66, 3.11, 4.94 (controls 4 of 9).
The variant EADSLRYYYAN / GANNRPS / SSRDSSGFQVQ gave ND, ND, ND (controls 2 of 9).
The variant EGDSLYHYYAN / GKNNYPS / SSRDSSGFQVF gave ND, 4.16, ND (controls 5 of 9).
The variant EGDSLRSYYAN / KKNNRPS / SSRDSSGFMVF gave 3.83, 4.92, 4.30 (controls 1 of 9).
The variant EGDSLRYYAAN / GKNNAPC / SSRDSSGFQVF gave 2.56, 2.52, 2.21 (controls 1 of 9).
The variant EGDSLRYYYAN / GKNNRPS / SSRDISAFQVF gave 2.23, 2.39, 2.49 (controls 3 of 9).
The variant EGPSLRCYYAN / GKNNRPS / SSRDSSGTQVF gave ND, 3.80, ND (controls 4 of 9).
The variant EGDSLRYYYAN / GKNNMPS / SSRLSSGDQVF gave ND, 4.08, ND (controls 1 of 9).

The first 6 variants above that were never detected:

CDR-L1,CDR-L2,CDR-L3,"log10 Kd, replicates",empty controls
EGDTLTYYYAN,GKWNRPS,SSRDSSGFQVF,"ND, ND, ND",5 of 9
EGDKLRYYYAN,GKNNEPS,SSRDTSGFQVF,"ND, ND, ND",2 of 9
EGDSLRYYYAN,GKNNEPS,SFRDSSGFQTF,"ND, ND, ND",1 of 9
EGDSLRYYYAN,GINNRPS,SGLDSSGFQVF,"ND, ND, ND",0 of 9
EGNSLRYYYAN,SKNNRPS,SSRDSSAFQVF,"ND, ND, ND",0 of 9
EADSLRYYYAN,GANNRPS,SSRDSSGFQVQ,"ND, ND, ND",2 of 9